Consider seven compounds from PMC3553014, “Albumin Stimulates the Activity of the Human UDP-Glucuronosyltransferases 1A7, 1A8, 1A10, 2A1 and 2B15, but the Effects Are Enzyme and Substrate Dependent” (PLoS ONE, 2013).

For one data set, the target named is T1, UGT2B15 (Homo sapiens, UniProt P54855).
T1 sequence (P54855 24-530): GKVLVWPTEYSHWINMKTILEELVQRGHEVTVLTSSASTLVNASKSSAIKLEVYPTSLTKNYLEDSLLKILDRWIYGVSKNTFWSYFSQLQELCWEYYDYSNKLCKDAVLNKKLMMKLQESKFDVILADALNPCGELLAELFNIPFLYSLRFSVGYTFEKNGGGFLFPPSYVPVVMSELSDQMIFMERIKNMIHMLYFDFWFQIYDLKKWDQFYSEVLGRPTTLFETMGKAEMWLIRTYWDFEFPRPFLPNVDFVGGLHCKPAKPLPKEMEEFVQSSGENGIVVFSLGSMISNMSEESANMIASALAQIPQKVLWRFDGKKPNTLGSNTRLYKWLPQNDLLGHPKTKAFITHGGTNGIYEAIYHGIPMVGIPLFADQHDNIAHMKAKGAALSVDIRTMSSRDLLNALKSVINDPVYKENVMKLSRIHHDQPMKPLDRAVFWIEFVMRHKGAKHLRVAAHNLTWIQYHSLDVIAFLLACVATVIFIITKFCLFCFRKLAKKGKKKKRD
The conditions noted are these: No BSA; 17α-estradiol: 3-glucuronide formation.

Data set [1] has as its system 17α-estradiol (17-epiestradiol). Description: purified protein, by the assay type. The conditions noted are these: pH 7.4.
The test system of a further data set is 17β-estradiol. Description: purified protein, by the assay type. The settings on record: pH 7.4.

For orientation: Vmax means the top rate of the reaction or transport when substrate is in excess.

`C[C@]12CC[C@@H]3c4ccc(O)cc4CC[C@H]3[C@@H]1CC[C@H]2O` [17α-Estradiol, 17α-estradiol]: the “K m or S 50 ± S.E.” value at UGT2B15 is reported as 10.2±1.0(8.0–12.3) µM.

UGT1A1 (Homo sapiens): in data set [1], the K0.5 was 4.57±0.48(3.59–5.56) uM and the maximal velocity (Vmax) turned out to be 1.9e-05 µmol/min/mg.

UGT1A8 (Homo sapiens): in the data set on 17β-estradiol, the K0.5 is given as 8.16±0.55(7.03–9.30) uM and the Vmax was 2e-05 µmol/min/mg.

Take UGT1A10 (Homo sapiens): in data set [1], the K0.5 is listed as 25.7±6.3(12.8–39.1) uM and the Vmax was 7e-05 µmol/min/mg. Besides, in the data set on 17β-estradiol, the K0.5 is recorded as 4.58±0.61(3.30–5.85) uM and the Vmax came to 0.0025 µmol/min/mg.

Turning to UGT2B4 (Homo sapiens), in data set [1], the K0.5 is reported as 4.51±0.68(3.09–5.93) uM and the Vmax is 5.3e-05 µmol/min/mg.

Turning to UGT2B7 (Homo sapiens), in data set [1], the K0.5 is on record as 0.128±0.015(0.098–0.158) uM and the Vmax came out at 1.4e-05 µmol/min/mg. In addition, in the data set with 17β-estradiol, the K0.5 was 2.56±0.29(1.96–3.16) uM and the Vmax worked out at 6.7e-06 µmol/min/mg.

In the case of UGT2B17 (Homo sapiens), in the data set with 17β-estradiol, the K0.5 was 6.01±0.26(5.47–6.54) uM and the Vmax is 1.3e-05 µmol/min/mg.
